Data as given in patent US20110224245A1, “Treatment Of Neurological Disorders Using Huperzine” (President and Fellows of Harvard College, priority 2008, published 2011).

Experiments:
Type in all cases: in vivo
rats = assay: Toxicity (TOX) / minimal motor impairment, rats, oral; conditions: 1 mg/kg oral
[1] = system: formalin-induced paw-licking; assay: Formalin test (paw licking) in mice; conditions: 1 mg/kg i.p., individual animals
Procedure: The formalin test for antinociceptive activity is described in numerous publications, e.g., Hunskaar, S., O. B. Fasmer, and K. Hole, J. Neurosci. […] The formalin test is accepted as an art recognized model of persistent clinical pain.
Male Swiss Webster NIH mice (20-30 g; Harlan, San Diego, Calif.) were used in the experiments described herein. Food was withdrawn on the day of experiment. Mice were placed in Plexiglass jars for at least 1 hour to accommodate to the environment. Following the accommodation period, mice were weighed and given either a huperzine compound administered intraperitoneal (i.p.) or oral (p.o.), or the appropriate volume of vehicle (10% Tween-80). Fifteen minutes after the i.p. dosing, and 30 minutes after the p.o. dosing mice were injected with formalin (20 μL of 5% formaldehyde solution in saline) into the dorsal surface of the right hind paw. Mice were transferred to the Plexiglass jars and monitored for the amount of time spent licking or biting the injected paw. Periods of licking and biting were recorded in 5 minute intervals for 40 minutes after the formalin injection. All experiments were done in a blinded manner. The early phase (acute) of the formalin response is measured as licking/biting between 0-5 minutes, and the late phase (inflammatory) is measured from 10-40 minutes. Differences between vehicle and drug treated groups are analyzed by one-way analysis of variance (ANOVA). A P value<0.05 is considered significant.
Fifteen minutes after the i.p. dosing, mice were injected with formalin (20 μL of 5% formaldehyde solution in saline) into the dorsal surface of the right hind paw. Periods of licking and biting were recorded in 5 minute intervals for 40 minutes after the formalin injection as shown below in Tables 1 and 2. All experiments were done according to the art-recognized Anticonvulsant Screening Program of the NINDS at the University of Utah.
Duration of paw licking in the tables below is expressed in seconds.

6 Hz seizures = assay: 6 Hz seizure test, mice i.p.; conditions: IP, 1 h
Procedure: HupA was also evaluated for its ability to modify tonic extension, minimal clonic, limbic seizures in the maximal electroshock seizure (MES), subcutaneous pentylenetetrazol (sc PTZ), and 6 Hz seizure tests following intraperitoneal administration. These three tests are highly predictive of efficacy against human generalized tonic-clonic (MES), generalized myoclonic (sc PTZ), and refractory limbic (6 Hz) seizures, respectively. In addition, it was tested for its ability to prevent the expression of Stage V seizures in the hippocampal kindled rat model of partial epilepsy.
Male, 18-25 g CF1 mice and 100-125 g Sprague-Dawley rats (Charles River Laboratories, Wilmington, Mass.) were used as the experimental animals. Animals were pretreated intraperitoneally (i.p.) with increasing doses of HupA and tested at various times after administration for protection against tonic extension (MES test), minimal clonic (s.c. PTZ test), limbic (6 Hz), or secondarily generalized (kindled rat) seizures. Seizure testing was carried out as follows. For the MES and 6 Hz tests, a drop of anesthetic/electrolyte solution (0.5% tetracaine hydrochloride in 0.9% saline) was applied to the eyes of each animal prior to placement of the corneal electrodes. The electrical stimulus in the MES test was 50 mA, 60 Hz, for mice and 150 mA, 60 Hz, for rats, delivered for 0.2 sec (White et al., 2002, In R. H. Levy et al., eds. Antiepileptic Drugs, 5th edition, p. 36-48, Philadelphia: Lippincott Williams & Wilkins). The ability of the test substance to prevent seizures induced by 6 Hz corneal stimulation (32 mA, 3 sec duration) was assessed at various times after i.p. administration of 1 mg/kg HupA For assessment of hippocampal kindling, HupA (1 mg/kg, i.p.) was administered. The ability of the compound to block the expression of hippocampal kindled seizures was evaluated using the rapid hippocampal kindling model (White et al., 2002). Animals not displaying secondarily generalize seizures were considered protected.
Quantitative data was obtained for Huperzine A in a 6 Hz model as described above (Barton et al., 2001, Epilepsy Res. 47:217-227) using three levels of electrical stimulation.

C/C=C1\[C@H]2C=C(C)C[C@]1(N)c1ccc(=O)[nH]c1C2 [Huperzine A]
TOX N/F, time course (rats; 0.25 h): 0/4
TOX N/F, time course (rats; 0.5 h): 0/4
TOX N/F, time course (rats; 1.0 h): 0/4
TOX N/F, time course (rats; 2.0 h): 0/4
TOX N/F, time course (rats; 4.0 h): 0/4
TOX N/F, time course (rats; 6.0 h): 0/4
Duration of mice paw licking ([1]; 0 min): 0.00 s
Duration of mice paw licking ([1]; 5 min): 0.00 s
Duration of mice paw licking ([1]; 10 min): 0.00 s
Duration of mice paw licking ([1]; 15 min): 0.00 s
Duration of mice paw licking ([1]; 20 min): 0.00 s
Duration of mice paw licking ([1]; 25 min): 0.00 s
Duration of mice paw licking ([1]; 30 min): 0.00 s
Duration of mice paw licking ([1]; 35 min): 0.00 s
Duration of mice paw licking ([1]; 40 min): 0.00 s
N/F (ED50 Biological Response) (6 Hz seizures; 22 mA, 0.09 mg/kg): 1/8
N/F (ED50 Biological Response) (6 Hz seizures; 22 mA, 0.175 mg/kg): 2/8
N/F (ED50 Biological Response) (6 Hz seizures; 22 mA, 0.35 mg/kg): 5/8
N/F (ED50 Biological Response) (6 Hz seizures; 22 mA, 0.7 mg/kg): 7/8
N/F (ED50 Biological Response) (6 Hz seizures; 32 mA, 0.2 mg/kg): 0/8
N/F (ED50 Biological Response) (6 Hz seizures; 32 mA, 0.3 mg/kg): 2/8
N/F (ED50 Biological Response) (6 Hz seizures; 32 mA, 0.415 mg/kg): 7/8
N/F (ED50 Biological Response) (6 Hz seizures; 32 mA, 0.83 mg/kg): 8/8
